From ChEMBL document CHEMBL4043202, “Synthesis, pH dependent, plasma and enzymatic stability of bergenin prodrugs for potential use against rheumatoid arthritis” (Bioorg Med Chem, 2017)

Tests used:
[1] = Partition coefficient, log P of the compound in water/n-octanol at pH 7.4 at 25 degC by HPLC method
[2] = Distribution coefficient, log D of the compound in PBS/n-octanol at pH 7.4 at 25 degC by HPLC method; settings: octanol/water

**Q.** What does the source list for COc1c(OC(=O)c2c([N+](=O)[O-])cc([N+](=O)[O-])cc2[N+](=O)[O-])cc2c(c1O)[C@@H]1O[C@H](COC(=O)c3c([N+](=O)[O-])cc([N+](=O)[O-])cc3[N+](=O)[O-])[C@@H](O)[C@H](O)[C@H]1OC2=O?
**A.** logP [1]: 2.79; logD [2]: 1.8
